The values that follow come from US5607937A, “Piperazides of substituted phenylalanine derivatives as thrombin inhibitors” (priority 1993, dated 1997).

Amino acid sequences for entries named in this document (tags omitted). Residues count along the entry.
UniProt P00747, 97-580 partner limits assumed: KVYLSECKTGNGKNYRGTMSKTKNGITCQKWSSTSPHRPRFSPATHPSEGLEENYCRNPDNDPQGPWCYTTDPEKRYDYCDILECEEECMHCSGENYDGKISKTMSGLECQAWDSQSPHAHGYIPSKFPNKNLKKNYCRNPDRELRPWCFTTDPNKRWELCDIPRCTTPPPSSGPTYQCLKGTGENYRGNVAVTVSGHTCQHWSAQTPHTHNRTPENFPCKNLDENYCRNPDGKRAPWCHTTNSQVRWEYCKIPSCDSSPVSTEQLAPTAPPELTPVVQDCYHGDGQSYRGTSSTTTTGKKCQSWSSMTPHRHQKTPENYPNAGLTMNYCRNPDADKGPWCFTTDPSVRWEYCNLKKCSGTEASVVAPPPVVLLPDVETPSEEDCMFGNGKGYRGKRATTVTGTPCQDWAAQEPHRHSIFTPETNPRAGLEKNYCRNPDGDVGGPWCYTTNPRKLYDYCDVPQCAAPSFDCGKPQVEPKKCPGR
UniProt P00747, 581-810 limits assumed: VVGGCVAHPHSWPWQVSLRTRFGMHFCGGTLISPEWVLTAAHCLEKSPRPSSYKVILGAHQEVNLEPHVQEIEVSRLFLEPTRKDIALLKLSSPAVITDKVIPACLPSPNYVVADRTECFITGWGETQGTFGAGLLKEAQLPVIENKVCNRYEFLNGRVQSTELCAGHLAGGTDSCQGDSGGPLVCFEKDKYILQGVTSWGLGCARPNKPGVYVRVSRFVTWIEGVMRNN

One assay concerns the target thrombin (Bos taurus, UniProt P00735). Description: biochemical.
The target of a further assay is plasmin (Homo sapiens, UniProt P00747). Description: inhibition of plasmin, dissociation constant Ki. The note with it: read-out: Ki, Plasmin.
In assay [1] the test system is coagulation in human plasma. The assay is described as follows: thrombin time (TT) in human plasma.
In assay [2] the test system is coagulation in human plasma. The assay is described as follows: prothrombin time (PT, Quick value) in human plasma.
The test system of assay [3] is coagulation in human plasma. Description: activated partial thromboplastin time (aPTT) in human plasma.
The target of a further assay is T1, factor XIIa (Homo sapiens, UniProt P00748).
T1 sequence (P00748 373-615 limits assumed): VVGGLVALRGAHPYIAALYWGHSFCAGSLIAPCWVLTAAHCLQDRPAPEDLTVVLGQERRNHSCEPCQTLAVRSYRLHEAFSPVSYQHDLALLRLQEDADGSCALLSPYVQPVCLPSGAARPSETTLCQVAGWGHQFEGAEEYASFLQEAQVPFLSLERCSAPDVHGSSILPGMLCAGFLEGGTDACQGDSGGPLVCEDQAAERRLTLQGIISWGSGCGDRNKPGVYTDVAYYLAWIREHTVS
Description: inhibition of factor XIIa, dissociation constant Ki.

The Ki is a measure of affinity in units of concentration, obtained from inhibition or displacement. In the case of `CS(=O)(=O)N1CCN(C(=O)C(Cc2cccc(C(=N)N)c2)NS(=O)(=O)c2ccc3ccccc3c2)CC1` (centres unmarked) [AMD 2-Naph SO2 Me], the affinity at thrombin corresponds to a Ki of 2.8 nM. For `Cc1c(C)c(S(=O)(=O)NC(Cc2cccc(C(=N)N)c2)C(=O)N2CCN(S(C)(=O)=O)CC2)c(C)c2c1OC(C)(C)CC2` (centres unmarked) [AMD Pmc SO2 Me], at plasmin, the Ki came to 30 µM.

`CC(=O)N1CCN(C(=O)[C@H](Cc2cccc(C(=N)N)c2)NS(=O)(=O)c2ccc3ccccc3c2)CC1.Cl` [Compound 2, Nα-(2-naphthylsulfonyl)-(L)-3-amidinophenylalanine-4-acetylpiperazide hydrochloride] came in with a Ki on thrombin of 12 nM.

Compound `CS(=O)(=O)N1CCN(C(=O)[C@H](Cc2cccc(C(=N)N)c2)NS(=O)(=O)c2ccc3ccccc3c2)CC1.Cl` [Compound 5, Nα-(2-naphthylsulfonyl)-3-amidino-(L)-phenylalanine-4methylsulfonylpiperazide hydrochloride] came in with an inhibitory constant (Ki) at thrombin of 2.1 nM. For the compound `CS(=O)(=O)N1CCN(C(=O)C(Cc2cccc(C(=N)N)c2)NS(=O)(=O)c2cccc3ccccc23)CC1` (centres unmarked) [Compound 11], the “Concentr. to double the Thrombin time” value in assay [1] was determined as 0.22 µmol/L. The “Concentr. to double the Prothrombin time” value in assay [2] was 3.1 µmol/L. Besides, the “Concentr. to double the aPTT” value in assay [3] was determined as 1.8 µmol/L. `N=C(N)c1ccc(C[C@H](NC(=O)CNS(=O)(=O)c2ccc3ccccc3c2)C(=O)N2CCCCC2)cc1` [NAPAP, Nα-(2-naphthylsulfonyl)-glycyl-4-amidinophenylalanine piperidide, reference compound]: the “Concentr. to double the Thrombin time” value in assay [1] was found to be 0.048 µmol/L. In assay [2], the “Concentr. to double the Prothrombin time” value amounted to 1.0 µmol/L. The compound further showed a Ki on factor XIIa of 450 µM. For the same compound, in assay [3], the “Concentr. to double the aPTT” value came out at 0.50 µmol/L.
